Test results as given in ChEMBL document CHEMBL5725512, “Fused bicyclic 1,2,4-triazine compounds as TAM inhibitors” (2017).

biological target: T1, Phosphatidylinositol 4,5-bisphosphate 3-kinase catalytic subunit delta isoform (Homo sapiens, UniProt O00329); assay: PI3K Delta Assay: In some embodiments, the PI3Kδ inhibitor is selective. By ¿selective¿ is meant that the compound binds to or inhibits a kinase with greater affinity or potency, respectively, compared to at least one other kinase. In some embodiments, the PI3Kδ inhibitors are selective inhibitors of PI3Kδ (e.g., over PI3Kα, PI3Kβ and PI3Kγ). In some embodiments, selectivity can be at least about 2-fold, 5-fold, 10-fold, at least about 20-fold, at least about 50-fold, at least about 100-fold, at least about 200-fold, at least about 500-fold or at least about 1000-fold. Selectivity can be measured by methods routine in the art. In some embodiments, selectivity can be tested at the Km ATP concentration of each enzyme. In some embodiments, the selectivity of compounds described herein can be determined by cellular assays associated with particular PI3K kinase activity.
T1 sequence (O00329 whole entry): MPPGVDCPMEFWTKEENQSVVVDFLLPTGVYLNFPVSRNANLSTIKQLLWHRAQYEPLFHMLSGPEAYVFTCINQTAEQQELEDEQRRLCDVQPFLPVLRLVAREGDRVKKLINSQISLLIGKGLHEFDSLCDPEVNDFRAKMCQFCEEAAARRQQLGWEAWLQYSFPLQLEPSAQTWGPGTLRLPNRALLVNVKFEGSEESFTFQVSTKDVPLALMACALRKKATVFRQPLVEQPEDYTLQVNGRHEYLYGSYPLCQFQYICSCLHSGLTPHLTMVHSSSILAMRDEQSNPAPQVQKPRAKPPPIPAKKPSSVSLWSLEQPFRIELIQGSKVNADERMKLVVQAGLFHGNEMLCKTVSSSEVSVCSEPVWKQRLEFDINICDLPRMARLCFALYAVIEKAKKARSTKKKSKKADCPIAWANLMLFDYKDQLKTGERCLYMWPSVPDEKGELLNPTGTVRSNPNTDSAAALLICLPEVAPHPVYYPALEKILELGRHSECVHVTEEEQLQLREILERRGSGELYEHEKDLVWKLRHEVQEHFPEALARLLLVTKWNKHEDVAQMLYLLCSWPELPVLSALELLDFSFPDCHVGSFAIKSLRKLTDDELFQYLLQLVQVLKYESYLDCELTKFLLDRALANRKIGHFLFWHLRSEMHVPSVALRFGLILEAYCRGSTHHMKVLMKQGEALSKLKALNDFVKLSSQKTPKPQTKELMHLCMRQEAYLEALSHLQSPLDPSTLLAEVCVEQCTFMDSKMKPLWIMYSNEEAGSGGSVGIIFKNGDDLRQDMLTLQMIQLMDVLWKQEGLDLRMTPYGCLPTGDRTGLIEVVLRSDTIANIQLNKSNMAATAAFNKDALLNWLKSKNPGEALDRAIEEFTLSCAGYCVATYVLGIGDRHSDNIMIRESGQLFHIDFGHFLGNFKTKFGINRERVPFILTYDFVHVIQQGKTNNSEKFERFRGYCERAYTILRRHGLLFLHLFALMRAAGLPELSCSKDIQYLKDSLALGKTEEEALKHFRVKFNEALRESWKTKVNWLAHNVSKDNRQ

Row | SMILES | IC50 [nM]
1 | Cc1csc2nc(C(C)Nc3ncnc4[nH]cnc34)c(-c3cccc(F)c3)c(=O)n12 (stereo not drawn) | < 50
2 | CC(Nc1ncnc2[nH]cnc12)c1cc(Cl)c2ccnnc2c1-c1cccc(F)c1 (single isomer, unassigned) | < 50
3 | Cc1csc2nc([C@H](C)Nc3ncnc4[nH]cnc34)c(-c3cccc(F)c3)c(=O)n12 [DEZAPELISIB] | < 50
